Consider one compound from patent US20220226499A1, “Metabolite Delivery for Modulating Metabolic Pathways of Cells” (Arizona Board of Regents on Behalf of Arizona State …, priority 2019, published 2022).

This assay relates to healed skin. To be noted: rank among groups.

SMILES strings stand for the structures.

In the case of `O=C(O)CCC(=O)C(=O)O` [soluble aKG, alpha-ketoglutarate], the “ultimate tensile strength (UTS) and % strength as compared to the intact skin” value is given as “lowest”.
